Measurements as given in article PMC5727842, “Antioxidant and Antidiabetic Effects of Flavonoids: A Structure-Activity Relationship Based Study” (BioMed Research International, 2017).
Several values for one entry are separate records, joined by “and”; a condition that tells them apart may be missing. Identical values can stand only once.

Amino acid sequences for entries named in this document (tags omitted).
UniProt P80457, whole entry: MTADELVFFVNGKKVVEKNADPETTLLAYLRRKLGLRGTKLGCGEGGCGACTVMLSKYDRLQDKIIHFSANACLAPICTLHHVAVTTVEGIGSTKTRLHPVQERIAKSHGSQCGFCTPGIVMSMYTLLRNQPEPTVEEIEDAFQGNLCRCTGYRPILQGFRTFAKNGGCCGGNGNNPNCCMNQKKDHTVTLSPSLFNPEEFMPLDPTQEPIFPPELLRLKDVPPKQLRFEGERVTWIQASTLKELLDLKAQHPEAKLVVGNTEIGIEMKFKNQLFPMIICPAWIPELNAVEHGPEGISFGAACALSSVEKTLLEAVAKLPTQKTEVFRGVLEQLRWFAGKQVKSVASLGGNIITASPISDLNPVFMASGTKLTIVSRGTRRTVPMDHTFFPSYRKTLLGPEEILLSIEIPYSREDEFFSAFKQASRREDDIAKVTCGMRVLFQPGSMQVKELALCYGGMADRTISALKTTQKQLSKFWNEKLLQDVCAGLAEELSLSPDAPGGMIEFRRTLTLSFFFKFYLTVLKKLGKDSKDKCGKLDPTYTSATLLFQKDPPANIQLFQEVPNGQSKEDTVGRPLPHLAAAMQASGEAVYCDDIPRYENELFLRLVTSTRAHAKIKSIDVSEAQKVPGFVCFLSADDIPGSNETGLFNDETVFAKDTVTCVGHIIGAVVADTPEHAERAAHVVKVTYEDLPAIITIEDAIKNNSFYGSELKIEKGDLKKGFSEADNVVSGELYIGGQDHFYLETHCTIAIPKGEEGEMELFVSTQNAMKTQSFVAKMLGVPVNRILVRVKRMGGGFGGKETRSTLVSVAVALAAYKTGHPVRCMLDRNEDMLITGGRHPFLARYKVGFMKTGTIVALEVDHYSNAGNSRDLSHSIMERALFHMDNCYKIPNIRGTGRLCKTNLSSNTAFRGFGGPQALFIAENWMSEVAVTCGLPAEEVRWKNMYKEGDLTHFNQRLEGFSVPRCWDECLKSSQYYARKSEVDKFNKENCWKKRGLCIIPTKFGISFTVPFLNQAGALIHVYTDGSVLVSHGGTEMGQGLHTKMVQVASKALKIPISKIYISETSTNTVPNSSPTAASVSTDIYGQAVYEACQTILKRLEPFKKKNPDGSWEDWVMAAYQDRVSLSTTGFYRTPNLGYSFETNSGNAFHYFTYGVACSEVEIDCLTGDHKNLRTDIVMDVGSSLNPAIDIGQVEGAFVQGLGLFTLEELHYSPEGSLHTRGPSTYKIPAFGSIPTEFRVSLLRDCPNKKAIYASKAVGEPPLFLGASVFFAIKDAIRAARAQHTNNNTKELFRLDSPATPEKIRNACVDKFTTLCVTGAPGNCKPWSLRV

Target: xanthine oxidase from buttermilk (Bos taurus, UniProt P80457)
Test: Xanthine oxidase inhibitory assay (XOI)

SMILES: O=c1c(O)c(-c2ccc(O)cc2)oc2cc(O)cc(O)c12 [Kaempferol, 4′,3,5,7-Tetrahydroxyflavone]
- IC50: 28.2 µM and 57.2 µM
